The values below are quoted from earlier work in patent US10358672B2, “7-β-hydroxysteroid dehydrogenase mutants and process for the preparation of ursodeoxycholic acid” (Pharmazell GmbH, priority 2014, dated 2019).

By UniProt entry, the sequences of proteins in these tests, tags left out. Where a name states a change or a piece, a line headed by the entry shows the natural chain unless it says otherwise.
UniProt A4ECA9: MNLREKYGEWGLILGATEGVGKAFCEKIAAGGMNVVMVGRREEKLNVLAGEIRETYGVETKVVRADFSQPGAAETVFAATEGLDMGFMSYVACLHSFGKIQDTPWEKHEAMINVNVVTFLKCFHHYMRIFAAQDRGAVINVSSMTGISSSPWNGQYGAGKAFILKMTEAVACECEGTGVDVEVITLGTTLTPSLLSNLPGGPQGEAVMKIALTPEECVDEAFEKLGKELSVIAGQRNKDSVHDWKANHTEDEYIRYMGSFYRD

The target of the data set is 7β-HSDH obtainable from Collinsella aerofaciens DSM 3979 (Collinsella aerofaciens, UniProt A4ECA9). Conditions: wild-type 7β-HSDH; cited from earlier work.

Consider `C[C@H](CCC(=O)O)[C@H]1CC[C@H]2[C@@H]3[C@@H](O)C[C@@H]4C[C@H](O)CC[C@]4(C)[C@H]3CC[C@]12C` [UDCA, Ursodeoxycholic acid], for which the Km (as a rule, the substrate concentration at which the rate is half of its maximum) was 6.23 µM.
